Reference: patent US20110319427A1, “USE OF 5AHQ AND BORTEZOMIB FOR THE TREATMENT OF HEMATOLOGICAL DISEASES” (priority 2009, published 2011)
Where two headings read alike, the source gives them in different places.

System: THP1/BTZ100

Nc1ccc(O)c2ncccc12 [5AHQ, 5-amino-8-hydroxyquinoline]
RF 5AHQ (Resistance Factor) (THP1/BTZ100 (+)): 1.7 | RF 5AHQ (Resistance Factor) (THP1/BTZ100 (−)): 1.7
